Laboratory results published in ChEMBL document CHEMBL1129787, “Synthesis of potent cyclic hexapeptide NK-1 antagonists. Use of a minilibrary in transforming a peptidal somatostatin receptor ligand into an NK-1 receptor ligand via a polyvalent peptidomimetic” (J Med Chem, 1996).

Amino acid sequences for entries named in this document (tags omitted).
UniProt P25103, whole entry: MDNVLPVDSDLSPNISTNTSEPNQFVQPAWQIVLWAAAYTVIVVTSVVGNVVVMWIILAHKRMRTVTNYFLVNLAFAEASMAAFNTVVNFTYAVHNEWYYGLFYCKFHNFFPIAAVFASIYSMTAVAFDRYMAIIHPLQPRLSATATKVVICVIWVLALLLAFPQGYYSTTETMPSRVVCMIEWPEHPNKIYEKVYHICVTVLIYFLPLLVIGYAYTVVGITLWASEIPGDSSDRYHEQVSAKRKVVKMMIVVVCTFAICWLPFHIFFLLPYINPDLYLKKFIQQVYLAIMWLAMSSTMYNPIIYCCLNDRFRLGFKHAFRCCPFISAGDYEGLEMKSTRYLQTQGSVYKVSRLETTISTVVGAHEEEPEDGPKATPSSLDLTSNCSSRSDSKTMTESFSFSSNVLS

Assays:
Somatostatin receptor = assay: Ability to inhibit binding of [3I]-CGP 23996 to somatostatin receptor on membranes from AtT-20 cells; type: cell-based; details: att20
Substance-P receptor = Substance-P receptor (Homo sapiens, UniProt P25103); assay: Binding affinity towards Tachykinin receptor 1
Outline: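 NK-1 receptor inhibition assay. IC50 is reported in nM as the mean ± SD.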

**Q.** For `NCCCCCOC[C@H]1O[C@@H](OCCc2c[nH]c3ccccc23)[C@H](OCc2ccccc2)[C@@H](OCc2ccccc2)[C@@H]1OCc1ccccc1`, which IC50 (Somatostatin receptor) is on record?
**A.** 5 µM

**Q.** What about the IC50 (Substance-P receptor) of the same compound?
**A.** 120 µM
